Earlier results, collected in paper PMC6746264, “Novel tyrosinase inhibitory peptide with free radical scavenging ability” (Journal of Enzyme Inhibition and Medicinal Chemistry, 2019).

Tested on: hepatocytes and melanocytes
Conditions: metabolite of hydroquinone; cited from earlier work
Text: However, the adverse side effects associated with their use have led to restrictions in their applications.

In the case of `O=C1C=CC(=O)C=C1` [benzoquinone], the cytotoxicity is listed as “cytotoxic to hepatocytes and melanocytes”.
